Test system: Axillary sweat production
Assay: Axillary sweat production measured by gravimetric method (filter paper) in a human subject after topical dosing
Conditions: for Percent Change from Baseline in sweat production: right axilla

Question: Which results are given for “(2R,3′R) 3-(2-cyclopentyl-2-phenyl-2-hydroxyacetoxy)-1-(methoxycarbonylmethyl)-1-methylpyrrolidinium bromide”?
Answer: reduction of sweat production compared to baseline (5% solution in 70% ethanol, treated axilla): more than 50%; duration of efficacy (sweat reduction) (5% solution topical): up to 24 hours; Percent Change from Baseline in sweat production (8 hours After 2nd Dose, 0.5 mL of 5% solution in 70% ethanol once a day): −50%; Percent Change from Baseline in sweat production (8 hours After 3rd Dose, 0.5 mL of 5% solution in 70% ethanol once a day): −50%; Percent Change from Baseline in sweat production (8 hours After 4th Dose, 0.5 mL of 5% solution in 70% ethanol once a day): −56%; Percent Change from Baseline in sweat production (Average for the entire treatment period, 5% solution): −52%

Reference: US10383846B2, “Method of dosing and use of soft anticholinergic esters” (dated 2019)
